# Ab-95 light chain CDR variants: yeast mating affinities

Values reported by Engelhart et al. 2022, doi:10.1038/s41597-022-01779-4 (FLAb copy).

The target is the same throughout: PDVDLGDISGINAS, from the HR2 region of SARS-CoV-2 spike.

Parent: Ab-95, a human scFv built as VH, three GGGGS repeats, VL. Only the CDRs of the light chain vary.
VH: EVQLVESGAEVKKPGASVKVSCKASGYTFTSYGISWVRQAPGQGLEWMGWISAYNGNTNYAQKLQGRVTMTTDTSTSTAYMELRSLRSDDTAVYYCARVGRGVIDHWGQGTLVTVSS
VL: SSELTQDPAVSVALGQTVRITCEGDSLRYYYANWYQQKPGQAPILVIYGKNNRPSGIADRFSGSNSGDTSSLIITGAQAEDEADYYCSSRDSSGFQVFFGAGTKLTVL

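The starting antibody came from a phage panning campaign against this peptide. Library AAYL52 holds single substitutions and randomly drawn double and triple substitutions in the CDRs. Affinity was read by AlphaSeq, a pooled yeast mating assay with surface-displayed partners. Pairs that bind mate more often; barcode pairs of the diploids are counted by sequencing. Scores were corrected for input abundance and mapped to Kd with protein pairs of known affinity run in the same pool. Mating was done three times.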

The parent's light chain CDRs are EGDSLRYYYAN, GKNNRPS, SSRDSSGFQVF; each variant's own CDRs replace them letter for letter.
Values are log10 of the apparent Kd in nM; lower means stronger binding.
Replicates are averaged; those with no signal do not enter the mean.
"nd" means that the variant was in the library but no mating with the target was seen in that replicate; the authors take this as a sign of poor binding, and no number exists.

Variant EGDSLRMYSAN, GKNNRWS, SSRDSSGFQVF showed 3.09, 3.23, 2.77 (mean 3.03; controls 3 of 9).
Variant EGDSLRYYYAN, GKNNRPS, SSRDSTGFEVF showed 2.39, 2.24, 2.46 (mean 2.36; controls 0 of 9).
Variant EGDSTRYYYAN, GKNNRPS, SNRDSSGAQVF showed 4.09, 4.06, 3.61 (mean 3.92; controls 1 of 9).
Variant EGDSLRYSYAN, KKNNRPS, SVRDSSGFQVF showed 2.24, 1.90, 2.07 (mean 2.07; controls 1 of 9).
Variant EGDSLRYYYAN, GKNNRPS, SSLDSSGFQVA showed nd, 3.05, nd (controls 1 of 9).
Variant EGDSLRYYFAN, GKNNRPS, SMRDSSGFEVF showed 4.55, 5.68, nd (mean 5.12; controls 4 of 9).
Variant EGDSPRYYYAE, GKNNVPS, SSRDSSGFQVF showed 3.63, 5.21, 3.06 (mean 3.97; controls 1 of 9).
Variant RGDSLRYHYAN, GKNNRPS, SSRDSSRFQVF showed 3.27, 4.12, 3.41 (mean 3.60; controls 6 of 9).
Variant EGDSLRYYYAT, GKLNRPS, SSRDSSGFQVF showed 4.20, nd, nd (controls 1 of 9).
Variant EGDSLRYYYTN, GKNNRCS, SSRDSSGDQVF showed 2.94, 2.84, 4.01 (mean 3.26; controls 3 of 9).
Variant ETDSLRYYYAN, GKNNRPS, SSRDSQGFEVF showed nd, nd, 3.68 (controls 3 of 9).
Variant EGDSHRYYYFN, GKNNRPS, SSRDSSYFQVF showed 3.40, nd, nd (controls 2 of 9).
Variant EGDSLRYYYAN, GKNNRPS, MSRDSRGFQVF showed 2.62, 2.32, 2.49 (mean 2.48; controls 3 of 9).
Variant EGWSLRYYYAN, GKNPRPS, SSRDMSGFQVF showed 5.23, nd, nd (controls 2 of 9).
Variant EGDSLRYYYAN, IKNSRPS, SSRVSSGFQVF showed 4.64, nd, 2.74 (mean 3.69; controls 2 of 9).
Variant EGDSLFYYYAN, GKNNRPS, PSRDSSGFWVF showed 4.12, nd, 3.85 (mean 3.98; controls 2 of 9).
Variant EGFSLRYYYAN, GKNNRWS, SGRDSSGFQVF showed nd, nd, nd (controls 1 of 9).
Variant EGDSLRYYYAN, GSNERPS, SSRDCSGFQVF showed 3.94, 5.00, nd (mean 4.47; controls 3 of 9).
Variant EGDSLRYYYAN, GKNNRPS, SCRYSSGFQFF showed 2.20, 2.31, 1.93 (mean 2.15; controls 4 of 9).
Variant EGDSLRYYYAN, GKNNRPS, SSHISSGFQVK showed nd, nd, nd (controls 0 of 9).
Variant EGDSDRYYYAN, GKNNRPE, SSRDSSGFQVF showed nd, nd, nd (controls 2 of 9).
Variant EGDSLRYYYAN, GKNNCPS, SSRDQSGFQVF showed nd, 4.00, nd (controls 2 of 9).
Variant EGDSLRYYYAN, GKMNRPS, SGRQSSGFQVF showed 3.35, 3.47, 3.51 (mean 3.44; controls 3 of 9).
Variant EGDSLRYYYSN, GKPNRPH, SSRDSSGFQVF showed nd, nd, 3.40 (controls 4 of 9).
Variant EGDSLRYYYAN, GKNNRPS, SSRDYSGVQVL showed 2.29, 2.79, 1.73 (mean 2.27; controls 2 of 9).
Variant EGDSLRYYYAN, GKNNRPM, SSRDHSGQQVF showed 2.61, 3.19, 2.79 (mean 2.86; controls 1 of 9).
Variant EGDSLRNYNAN, GKNNRPS, SSRDSSGFQVF showed 0.95, 0.95, 0.37 (mean 0.76; controls 4 of 9).
Variant EGDSLRYYYAN, GKNNRPS, WSRDSSGFSVV showed 3.01, 3.57, 4.28 (mean 3.62; controls 3 of 9).
Variant EGDSLRYYYPN, RKNNRPS, SSRDSSGFQCF showed 3.23, 4.39, nd (mean 3.81; controls 1 of 9).
Variant EGDSLRYYYYN, GKNNRPS, SSRMSSGFQVC showed nd, 4.82, nd (controls 2 of 9).
Variant EGDYLRYYYAQ, GKNNRPS, FSRDSSGFQVF showed 3.85, nd, 4.19 (mean 4.02; controls 4 of 9).
Variant HGDSLRYYYAN, CKNNRPS, SSRDSSGFNVF showed 3.47, 4.21, 3.68 (mean 3.78; controls 2 of 9).
Variant EGDSLRCYYAN, GKGNRPS, SSRDSSRFQVF showed nd, 3.55, 3.49 (mean 3.52; controls 3 of 9).
Variant EGDSLRYYYAN, GKNNRPS, SLRCSFGFQVF showed 2.50, 2.39, 2.53 (mean 2.47; controls 2 of 9).
Variant EGDSLRYYYAN, YKNNRPS, NSDDSSGFQVF showed 4.16, nd, 3.99 (mean 4.07; controls 5 of 9).
Variant DGDSLRYYYAN, GKNNGPS, SSYDSSGFQVF showed 5.68, 4.12, nd (mean 4.90; controls 2 of 9).
Variant EGHSLRYYYYN, GKNNRPS, KSRDSSGFQVF showed nd, nd, nd (controls 4 of 9).

Extract of 5 entries:

Variant EGDSLRNYNAN, GKNNRPS, SSRDSSGFQVF showed 0.95, 0.95, 0.37 (mean 0.76; controls 4 of 9).
Variant DGDSLRYYYAN, GKNNGPS, SSYDSSGFQVF showed 5.68, 4.12, nd (mean 4.90; controls 2 of 9).
Variant EGDSLRYYYAN, YKNNRPS, NSDDSSGFQVF showed 4.16, nd, 3.99 (mean 4.07; controls 5 of 9).
Variant EGDYLRYYYAQ, GKNNRPS, FSRDSSGFQVF showed 3.85, nd, 4.19 (mean 4.02; controls 4 of 9).
Variant EGDSLRYYYAN, GKNNRPS, SCRYSSGFQFF showed 2.20, 2.31, 1.93 (mean 2.15; controls 4 of 9).

For reference, the parent read 2.31 as the reference entry and 2.25 as a member of this library.
Three control strains display no target. For library AAYL52, 28% of the pairings with them gave a signal, with a median of 3.91 and one signal in twenty below 2.90, so weak values seen in few replicates may be background. For each scFv, signals with the empty controls are counted beside the result.